Test results from patent US20120207861A1, “BIOCIDAL COMPOSITION AND METHOD FOR TREATING RECIRCULATING WATER SYSTEMS” (priority 2006, published 2012).

Experiments:
Format in all cases: cell-based
Conditions in all cases: Table 4; Chlorine 1 ppm
[1] = test system: bacteria Alcaligenes, Chryseobacterium and Sphingomonas; assay: Prevention secondary screen: bacterial plate counts
[2] = test system: eight species of bacteria and four species of fungi typically found in swimming pool water; assay: Prevention secondary screen: laboratory scale model of a swimming pool, water clarity and hydrogen peroxide loss
[3] = test system: fungi Paecilomyces and Trichoderma; assay: Prevention secondary screen: fungal plate counts

## Chlorine
[1]
  Bacterial Counts at Clarity of 1.0 NTU or above: 6.4 × 10^4 CFU/ml
[2]
  Number of Days of Clarity below 1.0 NTU: 23 days
[3]
  Fungal Counts at Clarity of 1.0 NTU or above: 0 CFU/ml
